Antibody variant affinities, Ab-14 light chain, assay B

Reference: Li et al. 2023, doi:10.1038/s41467-023-39022-2. File: FLAb, binding data.

Antigen: PDVDLGDISGINAS, a 14-residue peptide of the SARS-CoV-2 spike HR2 region.

Ab-14 is the parent antibody, in scFv form: VH, then a 15-residue (Gly4Ser)3 linker, then VL. The heavy chain is unchanged in all variants.
VH: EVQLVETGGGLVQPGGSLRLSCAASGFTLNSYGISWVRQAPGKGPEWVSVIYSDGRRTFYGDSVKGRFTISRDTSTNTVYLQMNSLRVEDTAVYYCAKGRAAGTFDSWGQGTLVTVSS
VL: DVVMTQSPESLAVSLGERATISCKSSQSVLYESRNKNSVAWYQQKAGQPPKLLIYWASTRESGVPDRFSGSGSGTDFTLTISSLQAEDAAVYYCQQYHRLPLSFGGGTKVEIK

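Phage display of a naive human antibody library on the peptide gave the parent. The variants were designed computationally from a first round of random CDR variants and then made and measured. Their group label is 14L_En_HC (En: ensemble of fine-tuned language models; HC: hill climbing; a sequence that several methods proposed may carry one label only). The scFvs were displayed on barcoded MATa yeast, the peptide on MATalpha yeast. The frequency of each diploid, read from paired DNA barcodes, reflects how well the two displayed proteins bind. The ratio of observed to expected reads was calibrated, replicate by replicate, on BCL2-family standards whose Kd was known from biolayer interferometry. Each pool was mated in six replicate cultures.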

Variants are written as CDR1, CDR2 and CDR3 of the light chain (limits as in the source). Parent: KSSQSVLYESRNKNSVA, WASTRES, QQYHRLPLS.
Values are log10 of the apparent Kd in nM; lower means stronger binding.
"n.d." marks a missing value. The strain was present, yet no cells mated with the target were sequenced in that replicate, which points to weak or no binding.

{"CDR-L1": "KISSLTTYESVNKNSVA", "CDR-L2": "EMSTRPS", "CDR-L3": "QSYHRLPLS", "log10 Kd, replicates": "1.02 / 0.66 / 0.41 / 0.60 / 0.37 / 0.73", "empty controls": "3/18 (2.67)"}
{"CDR-L1": "MLSDLVKMGSRQNNSVA", "CDR-L2": "DNSTRGS", "CDR-L3": "QQYDRLPLS", "log10 Kd, replicates": "n.d. / 2.63 / n.d. / n.d. / n.d. / n.d.", "empty controls": "0/18"}
{"CDR-L1": "TLGDVTRMESMKKNSIA", "CDR-L2": "DMSNRAD", "CDR-L3": "QQYHRLPLS", "log10 Kd, replicates": "0.04 / -0.09 / -0.28 / -0.33 / -0.14 / -0.34", "empty controls": "0/18"}
{"CDR-L1": "TIANSMLYLSNLKNSIA", "CDR-L2": "QAETRES", "CDR-L3": "QQYHRLPIS", "log10 Kd, replicates": "1.05 / 0.42 / 0.37 / 0.71 / 1.01 / 0.79", "empty controls": "1/18 (2.50)"}
{"CDR-L1": "TLGDVTMQLSRNKNSVA", "CDR-L2": "DASTSED", "CDR-L3": "QQYHRLPLS", "log10 Kd, replicates": "0.64 / 0.14 / 0.20 / 0.54 / 0.70 / -0.01", "empty controls": "0/18"}
{"CDR-L1": "KISQMSAIESITHNSVA", "CDR-L2": "QTSTRES", "CDR-L3": "QQYDRLPLS", "log10 Kd, replicates": "1.05 / 0.99 / 2.30 / 2.33 / 2.07 / 1.40", "empty controls": "1/18 (2.84)"}
{"CDR-L1": "TISQMLLMQTYHKNSVA", "CDR-L2": "GEETRYN", "CDR-L3": "QQYHRLPLS", "log10 Kd, replicates": "1.88 / 1.50 / 1.09 / 0.73 / 1.07 / 1.46", "empty controls": "0/18"}
{"CDR-L1": "MISQSFLIGSRAKNSVA", "CDR-L2": "QTSTRES", "CDR-L3": "QQYDRLPLS", "log10 Kd, replicates": "0.62 / 0.65 / 0.32 / 0.35 / 0.34 / 0.57", "empty controls": "0/18"}
{"CDR-L1": "SIYDATGLESRNKNPIA", "CDR-L2": "DVSTRPS", "CDR-L3": "QQYDRLPLS", "log10 Kd, replicates": "-0.02 / -0.02 / -0.10 / 0.04 / 0.20 / 0.15", "empty controls": "1/18 (3.11)"}
{"CDR-L1": "KLSMSTRYESENKNSIA", "CDR-L2": "ELVTRMS", "CDR-L3": "QQYHRLPLS", "log10 Kd, replicates": "0.60 / 0.72 / 0.90 / 0.55 / 1.11 / 0.82", "empty controls": "1/18 (2.48)"}
{"CDR-L1": "ILSQSVLMGMHTKNSVA", "CDR-L2": "QATMRFN", "CDR-L3": "QQYHHLPLM", "log10 Kd, replicates": "n.d. / 1.23 / n.d. / n.d. / 1.68 / 2.20", "empty controls": "0/18"}
{"CDR-L1": "KLGGATRFESSNKASIA", "CDR-L2": "DNSTRES", "CDR-L3": "QQYHRLPLS", "log10 Kd, replicates": "0.78 / 0.97 / 0.85 / 0.47 / 0.68 / 1.08", "empty controls": "4/18 (2.16)"}
{"CDR-L1": "KISQMSTIESILHNSVA", "CDR-L2": "QTSTRES", "CDR-L3": "QQYDRLPLS", "log10 Kd, replicates": "0.35 / 0.33 / 0.79 / 0.41 / 0.34 / 0.82", "empty controls": "0/18"}
{"CDR-L1": "HISYSMQHLTKNKNSVA", "CDR-L2": "NQQTRES", "CDR-L3": "QQYHMLPLS", "log10 Kd, replicates": "n.d. / 1.34 / n.d. / n.d. / n.d. / n.d.", "empty controls": "0/18"}
{"CDR-L1": "HISQSVGMTIRNKNSVA", "CDR-L2": "ENSTRED", "CDR-L3": "QQYDRLPLS", "log10 Kd, replicates": "n.d. / n.d. / n.d. / n.d. / 3.00 / 1.95", "empty controls": "0/18"}
{"CDR-L1": "IFSQSVLMGNMTRNSVA", "CDR-L2": "QASERFN", "CDR-L3": "QQYDRLPLI", "log10 Kd, replicates": "2.29 / 2.06 / 1.77 / 1.62 / 1.98 / 3.29", "empty controls": "1/18 (2.45)"}
{"CDR-L1": "KLTMSYRYESENKNSIA", "CDR-L2": "ELVTRMS", "CDR-L3": "QQYHRLPLS", "log10 Kd, replicates": "1.38 / 1.59 / 1.58 / 1.62 / 1.68 / 0.93", "empty controls": "1/18 (1.60)"}
{"CDR-L1": "KLLQAVMNETRNRNNVA", "CDR-L2": "HMTTRED", "CDR-L3": "QQYHRLPLS", "log10 Kd, replicates": "0.90 / 0.51 / 0.59 / 0.58 / 0.76 / 0.67", "empty controls": "2/18 (2.51)"}
{"CDR-L1": "KLSLFYRVETRNTNSVA", "CDR-L2": "DNSTRES", "CDR-L3": "QDYDRLPLS", "log10 Kd, replicates": "n.d. / n.d. / n.d. / n.d. / n.d. / n.d.", "empty controls": "2/18 (2.22)"}
{"CDR-L1": "KLSGATRMESRNKASVA", "CDR-L2": "ENSTRGE", "CDR-L3": "QQYFRLPLS", "log10 Kd, replicates": "0.84 / 0.60 / 0.87 / 0.44 / 0.56 / 0.81", "empty controls": "1/18 (2.14)"}
{"CDR-L1": "HISQSFMTEQVWRNNIA", "CDR-L2": "HQSTREQ", "CDR-L3": "QQYDRLPFS", "log10 Kd, replicates": "1.68 / n.d. / 0.83 / n.d. / 1.09 / 1.20", "empty controls": "0/18"}
{"CDR-L1": "HISYSMAHLSKNKNSVA", "CDR-L2": "NQQTREA", "CDR-L3": "QQYHRLPLS", "log10 Kd, replicates": "0.83 / 1.98 / 1.24 / 1.06 / 0.84 / 1.05", "empty controls": "0/18"}
{"CDR-L1": "KLSTLFYKESKQKNNVA", "CDR-L2": "EMTTRGS", "CDR-L3": "QQYDRLPLS", "log10 Kd, replicates": "-0.08 / 0.27 / -0.24 / -0.14 / -0.21 / 0.14", "empty controls": "0/18"}
{"CDR-L1": "HLSDTSMQGSYYRNSVA", "CDR-L2": "QESTRAD", "CDR-L3": "QQYHRLPLS", "log10 Kd, replicates": "0.43 / -0.04 / 0.58 / 0.14 / 0.08 / 0.22", "empty controls": "0/18"}
{"CDR-L1": "MITQSFLIGMKAKNSVA", "CDR-L2": "QTNTREE", "CDR-L3": "QQYDRLPLI", "log10 Kd, replicates": "0.59 / 0.17 / 0.26 / 0.03 / -0.08 / 0.11", "empty controls": "1/18 (2.80)"}
{"CDR-L1": "HIGGTMTWESKAKNSVA", "CDR-L2": "QSNTRAE", "CDR-L3": "QQYHRLPLS", "log10 Kd, replicates": "0.25 / 0.29 / 0.25 / 0.13 / 0.34 / 0.48", "empty controls": "1/18 (3.44)"}

Picked from the list: the 4 lowest averages where every replicate gave a value.

| CDR-L1 | CDR-L2 | CDR-L3 | log10 Kd, replicates | empty controls |
|---|---|---|---|---|
| TLGDVTRMESMKKNSIA | DMSNRAD | QQYHRLPLS | 0.04 / -0.09 / -0.28 / -0.33 / -0.14 / -0.34 | 0/18 |
| KLSTLFYKESKQKNNVA | EMTTRGS | QQYDRLPLS | -0.08 / 0.27 / -0.24 / -0.14 / -0.21 / 0.14 | 0/18 |
| SIYDATGLESRNKNPIA | DVSTRPS | QQYDRLPLS | -0.02 / -0.02 / -0.10 / 0.04 / 0.20 / 0.15 | 1/18 (3.11) |
| MITQSFLIGMKAKNSVA | QTNTREE | QQYDRLPLI | 0.59 / 0.17 / 0.26 / 0.03 / -0.08 / 0.11 | 1/18 (2.80) |

The authors' rule: three or more of the six replicates give a measured affinity, fewer mean a poor binder.
A sequence measured in both rounds can read differently, since the two assays cover different ranges.
Empty control strains, which show no peptide, gave a signal in 4% of pairings with all light chain designs; the median was 2.64 and 95% of these signals were weaker than 1.59. No background was subtracted. Also given: how often the same scFv was detected with the empty control strains, with their mean in brackets.
The parent sequence was in this pool as ten entries: three were never detected, three once, and four in most replicates, with averages from 0.34 to 2.37.